ChEMBL document CHEMBL3585273, “Discovery of Tricyclic Clerodane Diterpenes as Sarco/Endoplasmic Reticulum Ca(2+)-ATPase Inhibitors and Structure-Activity Relationships” (J Nat Prod, 2015)

Target: Sodium/potassium-transporting ATPase subunit alpha-2/alpha-3 (Rattus norvegicus, UniProt P06686+P06687)
Assay: Inhibition of Wistar rat brain Na+,K+-ATPase alpha2/3 after 2 hrs

With IVERMECTIN the IC50 was 6.48 µM.
